From patent US20230076527A1, “TREATMENT OF PAROXYSMAL NOCTURNAL HEMOGLOBINURIA” (Apellis Pharmaceuticals, Inc., priority 2020, published 2023)

Experiments:
PNH patients = PNH patients receiving eculizumab treatment; cited from earlier work
patients with PNH [1] = details: in vivo
patients with PNH [2] = assay: PEGASUS safety, 16-week randomized controlled period
[3] = 16-week randomized, controlled treatment period

eculizumab: monoclonal anti-C5 antibody that inhibits the formation of the MAC [reference compound]
patients classified as complete responders (transfusion independence and normal hemoglobin levels) (PNH patients): roughly 13%
patients classified as partial responders (decreased transfusion needs and reduced LDH) (PNH patients): 53%
poor responders (unchanged transfusion needs and persistent symptoms) (PNH patients): 33%
All Infections (patients with PNH [1]): 9 (23.1) n(%)
Sepsis (patients with PNH [1]): 0 n(%)
Abdominal Pain (adverse event) (patients with PNH [2]; 16-week randomized period): 4 (10.3) n(%)
Any TEAE (patients with PNH [2]; 16-week randomized period): 34 (87.2) n(%)
Back Pain (adverse event) (patients with PNH [2]; 16-week randomized period): 4 (10.3) n(%)
Discontinuations due to AE (patients with PNH [2]; 16-week randomized period): 0 n(%)
Dizziness (adverse event) (patients with PNH [2]; 16-week randomized period): 4 (10.3) n(%)
Fatigue (adverse event) (patients with PNH [2]; 16-week randomized period): 6 (15.4) n(%)
Headache (adverse event) (patients with PNH [2]; 16-week randomized period): 9 (23.1) n(%)
Hemolysis (adverse event) (patients with PNH [2]; 16-week randomized period): 9 (23.1) n(%)
Meningitis (patients with PNH [2]; 16-week randomized period): 0 n(%)
cases of meningitis (patients with PNH [2]; 16-week randomized period): No cases
deaths (patients with PNH [2]; 16-week randomized period): no deaths
injection site reactions (patients with PNH [2]; 16-week randomized period): 1 (2.6) n(%)
diarrhea (patients with PNH [2]; [3]): 2.6%
injection site reactions (patients with PNH [2]; [3]): 2.6%
